Only a part is listed here, and it is no random draw. Calls of active or inactive are those of the source.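 How the source made its calls: active means inhibition above the primary screen's cutoff, its mean inhibition plus 3 SD (cut at about 35% in these data); inactive means the rest.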
Molecular target: Glutathione S-transferase omega-1 (Homo sapiens) (UniProt P78417)
Assay: GSTO1 inhibitor hit confirmation, counter-screen for RBBP9 inhibitor project, biochemical, fluorescence polarization, triplicate (AID 2176);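 further: loss of polarization as inhibitors block binding of rhodamine sulfonate ester activity probe; 0% = GSTO1 with DMSO and 100% = wells lacking GSTO1 enzyme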
Conditions: recombinant GSTO1, probe fluorescence polarization; at 5.96 µM; stronger effect = higher value

Sequences of proteins named here, by UniProt entry; tags and fusion partners are left off. A change or cut given only in a name is not applied to a line headed by its entry.
UniProt P78417: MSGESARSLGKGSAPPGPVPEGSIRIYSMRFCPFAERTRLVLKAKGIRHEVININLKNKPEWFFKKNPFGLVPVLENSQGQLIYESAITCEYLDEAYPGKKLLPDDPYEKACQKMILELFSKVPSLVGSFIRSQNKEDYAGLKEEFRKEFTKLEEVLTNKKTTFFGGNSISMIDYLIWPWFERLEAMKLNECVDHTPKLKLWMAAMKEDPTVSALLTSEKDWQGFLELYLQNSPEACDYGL

With `C[N+]1=C2C=CC=CC=C2SC12C([N+](=O)[O-])=CC([N+](=O)[O-])=C[C-]2[N+](=O)[O-]` (stereo not drawn) as the molecule, how does the inhibition read?
The inhibition was active: 40.4%.

`Nc1cccc2c([As](=O)(O)O)cccc12` was tested. Which inhibition did it give?
Its inhibition is inactive: 31.9%.

With `CN(C)C(=O)c1cc([N+](=O)[O-])cc2c1-c1c(cc([N+](=O)[O-])cc1[N+](=O)[O-])C2=O` as the molecule, how does the inhibition read?
Its inhibition is inactive: 20.4%.
